Source: ChEMBL document CHEMBL1125892 (J Med Chem, 1991)

Amino acid sequences for entries named in this document (tags omitted).
UniProt P19327, whole entry: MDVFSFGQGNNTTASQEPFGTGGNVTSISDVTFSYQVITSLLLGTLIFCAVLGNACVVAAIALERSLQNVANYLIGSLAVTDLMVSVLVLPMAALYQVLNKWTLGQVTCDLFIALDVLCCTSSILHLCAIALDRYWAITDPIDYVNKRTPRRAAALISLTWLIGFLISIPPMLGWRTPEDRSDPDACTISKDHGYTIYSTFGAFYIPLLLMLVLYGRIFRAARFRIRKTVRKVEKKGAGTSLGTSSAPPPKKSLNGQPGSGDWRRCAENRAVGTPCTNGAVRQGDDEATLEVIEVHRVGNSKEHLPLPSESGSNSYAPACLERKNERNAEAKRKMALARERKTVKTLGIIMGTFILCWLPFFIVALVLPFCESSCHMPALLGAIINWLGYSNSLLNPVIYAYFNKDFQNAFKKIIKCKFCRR

Biological target: 5-hydroxytryptamine receptor 1A (Rattus norvegicus, UniProt P19327)
Assay: Binding affinity against 5-hydroxytryptamine 1A receptor of rat hippocampal tissue with [3H]8-OH-DPAT
Format: tissue-based, Hippocampus

IC50: 2.85 nM
Compound: O=C1CC2(CCCC2)CC(=O)N1CCCCN1CCN(c2nsc3ccccc23)CC1 [TIOSPIRONE]
